Test results as given in US20040053206A1 (DYAX, published 2004).

How the values were obtained:
Test in all cases: protease inhibition, apparent Ki (Ki,app)
[1] = target: human C1r, activated (human) (UniProt P00736)
[2] = target: human neutrophil elastase (human) (UniProt P08246)
human plasmin (human) = human plasmin (human) (UniProt P00747)
[3] = target: human pancreatic chymotrypsin (human) (UniProt P17538)
[4] = target: human plasma kallikrein (human) (UniProt P03952)
[5] = target: porcine pancreatic kallikrein (porcine) (UniProt P00752)

Ki [1] | Ki [2] | Ki (human plasmin (human)) | Ki [3] | Ki [4] | Ki [5] | Substance
10 µM | 1.7 µM | 0.000894 µM | – | – | – | aprotinin (from UniProt P00974 36-93) (other; other documents disagree on this pair)
– | – | – | 0.73 µM | 0.03 µM | 0.00055 µM | aprotinin (from UniProt P00974 36-93)
